# Assay results published in patent publication US20080096951A1, “Carvedilol Monocitrate Monohydrate” (SB Pharmo Puerto Rico Inc., priority 2002, published 2008).
# Test: Solubility in water (shaken vials, UV-Vis analysis of carvedilol concentration)
# Conditions: for pH of the filtered solution / Aqueous Solubility: water, 25° C.; for Aqueous Solubility: expressed as mg of carvedilol free base/mL of solution
# Protocol: Glass vials containing water and excess amount of carvedilol salts were shaken by a mechanical shaker at ambient conditions. Aliquots were taken out at various time-point, filtered through 0.45 μm Acrodisc GHP filter. The pH of the filtered solutions was measured and suitable dilution was performed prior to UV-Vis analysis of carvedilol concentration.
substance,measurement,setting,value
carvedilol monocitrate monohydrate [Carvedilol Mono-Citrate salt],pH value when dissolved in water,dissolved in water,~3
same,pH of the filtered solution,1 hr,3.5
same,Aqueous Solubility,1 hr,1630 µg/mL
same,pH of the filtered solution,4 hr,3.4
same,Aqueous Solubility,4 hr,1470 µg/mL
same,pH of the filtered solution,24 hr,3.0
same,Aqueous Solubility,24 hr,1070 µg/mL
same,pH of the filtered solution,48 hr,3.0
